In ChEMBL document CHEMBL1142542, “Synthesis, mechanistic studies, and anti-proliferative activity of glutathione/glutathione S-transferase-activated nitric oxide prodrugs” (Bioorg Med Chem, 2008):

How the values were obtained:
Settings in all cases: Homo sapiens
[1] = substrate: CCOC(=O)N1CCN(/[N+]([O-])=N/Oc2ccc([N+](=O)[O-])cc2[N+](=O)[O-])CC1
[2] = substrate: CCOC(=O)N1CCCN(/[N+]([O-])=N/Oc2ccc([N+](=O)[O-])cc2[N+](=O)[O-])CC1
[3] = substrate: CCOC(=O)N1CCN(/[N+]([O-])=N/Oc2ccc([N+](=O)[O-])cc2[N+](=O)[O-])CC1; remark: listed apart in the source
[4] = substrate: CCOC(=O)N1CCCN(/[N+]([O-])=N/Oc2ccc([N+](=O)[O-])cc2[N+](=O)[O-])CC1; remark: listed apart in the source
[5] = substrate: CCOC(=O)N1CCN(/[N+]([O-])=N/Oc2ccc([N+](=O)[O-])cc2[N+](=O)[O-])CC1; remark: listed apart in the source
[6] = substrate: CCOC(=O)N1CCCN(/[N+]([O-])=N/Oc2ccc([N+](=O)[O-])cc2[N+](=O)[O-])CC1; remark: listed apart in the source

B1: Glutathione S-transferase A1 (Homo sapiens), P08263 (protein)
chain: MAEKPKLHYFNARGRMESTRWLLAAAGVEFEEKFIKSAEDLDKLRNDGYLMFQQVPMVEIDGMKLVQTRAILNYIASKYNLYGKDIKERALIDMYIEGIADLGEMILLLPVCPPEEKDAKLALIKEKIKNRYFPAFEKVLKSHGQDYLVGNKLSRADIHLVELLYYVEELDSSLISSFPLLKALKTRISNLPTVKKFLQPGSPRKPPMDEKSLEEARKIFRF
What does the source list for B1?
kcat/Km [1]: 20000 M⁻¹ s⁻¹; kcat/Km [2]: 12000 M⁻¹ s⁻¹

B2: Glutathione S-transferase P (Homo sapiens), P09211 (protein)
chain: MPPYTVVYFPVRGRCAALRMLLADQGQSWKEEVVTVETWQEGSLKASCLYGQLPKFQDGDLTLYQSNTILRHLGRTLGLYGKDQQEAALVDMVNDGVEDLRCKYISLIYTNYEAGKDDYVKALPGQLKPFETLLSQNQGGKTFIVGDQISFADYNLLDLLLIHEVLAPGCLDAFPLLSAYVGRLSARPKLKAFLASPEYVNLPINGNGKQ
For B2, which kcat/Km [3] is on record?
Its kcat/Km is 1500 M⁻¹ s⁻¹.

And the kcat/Km [4]?
Its kcat/Km is 1300 M⁻¹ s⁻¹.

B3: Glutathione S-transferase Mu 1 (Homo sapiens), P09488 (protein)
chain: MPMILGYWDIRGLAHAIRLLLEYTDSSYEEKKYTMGDAPDYDRSQWLNEKFKLGLDFPNLPYLIDGAHKITQSNAILCYIARKHNLCGETEEEKIRVDILENQTMDNHMQLGMICYNPEFEKLKPKYLEELPEKLKLYSEFLGKRPWFAGNKITFVDFLVYDVLDLHRIFEPKCLDAFPNLKDFISRFEGLEKISAYMKSSRFLPRPVFSKMAVWGNK
B3 was tested. Which kcat/Km [5] did it give?
The kcat/Km was 62000 M⁻¹ s⁻¹.

What about the kcat/Km [6] of the same protein?
The kcat/Km was 42000 M⁻¹ s⁻¹.
